Values of other authors in US9149455B2, “Methods of treating melanoma” (Abraxis BioScience, LLC, priority 2012, dated 2015).

System: metastatic melanoma
Conditions: literature; cited from earlier work

HD IL-2: high dose interleukin 2, FDA-approved therapy for metastatic melanoma
effect on median overall survival: neither of which increased median overall survival
